Assay results reported in patent US6140333A, “N-acyl cyclic amine derivatives” (priority 1998, dated 2000).
pKi: −log10 of the molar value.

The chains behind the UniProt entries cited, without tags or fusion partners.
UniProt P08172, whole entry: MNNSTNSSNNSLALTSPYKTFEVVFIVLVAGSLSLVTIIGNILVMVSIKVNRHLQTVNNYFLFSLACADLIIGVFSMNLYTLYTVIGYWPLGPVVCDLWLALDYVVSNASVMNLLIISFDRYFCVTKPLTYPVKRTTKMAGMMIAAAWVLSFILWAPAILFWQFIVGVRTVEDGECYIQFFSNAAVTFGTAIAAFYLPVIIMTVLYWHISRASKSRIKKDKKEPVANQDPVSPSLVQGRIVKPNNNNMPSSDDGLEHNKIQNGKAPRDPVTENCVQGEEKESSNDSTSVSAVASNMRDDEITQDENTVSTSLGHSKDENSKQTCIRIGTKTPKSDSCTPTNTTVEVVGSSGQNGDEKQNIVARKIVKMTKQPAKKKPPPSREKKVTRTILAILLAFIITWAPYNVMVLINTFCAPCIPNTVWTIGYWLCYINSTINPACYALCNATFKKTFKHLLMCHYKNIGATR
UniProt P20309, whole entry: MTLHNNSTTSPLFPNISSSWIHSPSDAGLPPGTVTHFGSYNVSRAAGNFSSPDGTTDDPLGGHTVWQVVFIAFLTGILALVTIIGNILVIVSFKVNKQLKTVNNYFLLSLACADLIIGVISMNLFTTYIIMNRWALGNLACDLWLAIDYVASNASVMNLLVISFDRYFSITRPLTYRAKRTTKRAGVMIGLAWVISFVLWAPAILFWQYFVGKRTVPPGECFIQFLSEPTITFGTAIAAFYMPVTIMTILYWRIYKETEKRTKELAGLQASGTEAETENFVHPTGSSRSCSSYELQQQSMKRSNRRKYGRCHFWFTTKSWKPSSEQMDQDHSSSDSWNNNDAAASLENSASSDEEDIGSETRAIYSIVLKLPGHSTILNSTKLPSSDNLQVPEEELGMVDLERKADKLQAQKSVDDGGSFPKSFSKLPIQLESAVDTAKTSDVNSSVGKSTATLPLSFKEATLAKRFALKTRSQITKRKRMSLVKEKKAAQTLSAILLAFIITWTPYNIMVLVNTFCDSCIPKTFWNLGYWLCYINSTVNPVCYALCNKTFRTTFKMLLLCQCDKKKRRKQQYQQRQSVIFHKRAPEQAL

Tests used:
[1] = biological target: T1, m2 muscarinic acetylcholine receptor (Homo sapiens, UniProt P08172); type: binding; details: CHO cells expressing m2; 0.2 nM [3H]-N-methylscopolamine, pH 7.4, 120 min, room temperature
T1 construct: purchased Receptor Biology Inc; host or cells: CHO cells
Method: (§1) These tests were performed according to a modification of the method of Hargreaves et al. (Br. J. Pharmacol. 107: pp. 494-501, 1992). Thus, CHO cells expressing m2 and m3 muscarinic acetylcholine receptors (Receptor Biology Inc.) were incubated with 0.2 nM [^3 H]-N-methylscopolamine (84Ci/mmol, New England Nuclear, Inc.) and each compound of the present invention to be tested in 0.5 ml of 50 mM tris-HCl--10 mM MgCl2 --1 mM EDTA (pH 7.4) for 120 minutes at room temperature (about 20 to 25° C.), followed by suction filtration with a glass filter (Uni-Filter plate GF/C; Packard Instruments Co., Ind.) and washing four times with 1 ml of ice-cold Tris-HCl buffer. After the filter was dried for 1 hour at 50° C., a scintillator (Miroscinti 0; Packard Instruments Co., Inc.) was added, and the radioactivity of [^3 H]-N-methylscopolamine adsorbed by the filter was counted by a liquid scintillation counter (TopCount™; Packard Instruments Co., Inc.). Non-specific binding of [^3 H]-N-methylscopolamine was measured in the presence of 1 μM N-methylscopolamine, which was added. According to the method of Cheng and Prusoff (Biochem. Pharmacol. 22: pp. 3099-3108, 1973), the binding affinity (Ki value) of the compound of the present invention for muscarinic receptors was calculated from the concentration (IC50) of the test compound which achieved 50% inhibition of the binding of [^3 H]-N-methylscopolamine, labeled ligand.

[2] = biological target: T2, m3 muscarinic acetylcholine receptor (Homo sapiens, UniProt P20309); type: binding
T2 construct: purchased Receptor Biology Inc; host or cells: CHO cells
Method: as §1

NCCC1CCN(C(=O)[C@](O)(c2ccccc2)[C@@H]2CCC(F)(F)C2)CC1 [Example 13, 4-(2-Aminoethyl)-1-{(2R)-2-((1R)-3,3-difluorocyclopentyl)-2-hydroxy-2-phenylacetyl}piperidine]
pKi [1]: 6.20 | pKi ([2]; CHO cells expressing m3, 0.2 nM [3H]-N-methylscopolamine, pH 7.4, 120 min, room temperature): 8.43 | m2/m3 (ratio of Ki) ([2]; selectivity m2 over m3, binding): 170
